Source: publication PMC6954720, “Discovery of retinoic acid receptor agonists as proliferators of cardiac progenitor cells through a phenotypic screening approach” (Stem Cells Translational Medicine, 2019)

Chains of the proteins cited; added tags and fusions are not shown. Residues count along the entry.
UniProt P10826, 183-417 limits assumed: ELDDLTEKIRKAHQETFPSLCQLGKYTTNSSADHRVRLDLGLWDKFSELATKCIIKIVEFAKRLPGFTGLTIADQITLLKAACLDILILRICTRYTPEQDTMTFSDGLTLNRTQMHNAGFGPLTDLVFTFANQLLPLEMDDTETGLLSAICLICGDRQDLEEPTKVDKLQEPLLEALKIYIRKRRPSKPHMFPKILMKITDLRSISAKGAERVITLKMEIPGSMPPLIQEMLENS

Biological target: RARB (beta) ligand binding domain (Homo sapiens, UniProt P10826)
Assay: RAR LBD-SRC1-2 coactivator peptide recruitment assay, agonist format, RARB
Assay type: biochemical
Procedure: RAR ligand binding domain (LBD)‐SRC1‐2 coactivator peptide (NCOA1_677‐700 biotinylated) recruitment assays were established for the three RAR isotypes RARA (alpha), RARB (beta), and RARG (gamma) to determine relative potencies. […] A total of 0.4 μL of a fixed concentration range of test ligands dissolved in dimethyl sulphoxide (DMSO) was added to assay plates using an acoustic liquid dispenser. […] The raw data were transformed to % effect using the equation: compound % effect = 100 × [(X − min)/(max − min)], where X represents the effect in the presence of test compound and max and min are the effects in presence of the maximum and minimum controls, respectively.
The data were plotted to generate concentration‐response profiles and the concentration‐response curves were fit to the data using the four‐parameter logistic smart fit method in the Genedata Screener software (Genedata, Inc).

SMILES: CC1=C(/C=C/C(C)=C/C=C/C(C)=C/C(=O)O)C(C)(C)CCC1 [ATRA, all‐trans retinoic acid]
- maximal effect (% top effect): 104%
